The assay concerns Serratia marcescens. The following applies: isolate S1 to S21.

As for GENTAMICIN, the MIC – broadly, the lowest concentration found to suppress growth – is 0.5 µg/mL.

Values taken from ChEMBL document CHEMBL1255346 (2008).
